From patent US20240016942A1, “STAT DEGRADERS AND USES THEREOF” (Kymera Therapeutics, Inc., priority 2020, published 2024)

Amino acid sequences for entries named in this document (tags omitted).
UniProt P40763, whole entry: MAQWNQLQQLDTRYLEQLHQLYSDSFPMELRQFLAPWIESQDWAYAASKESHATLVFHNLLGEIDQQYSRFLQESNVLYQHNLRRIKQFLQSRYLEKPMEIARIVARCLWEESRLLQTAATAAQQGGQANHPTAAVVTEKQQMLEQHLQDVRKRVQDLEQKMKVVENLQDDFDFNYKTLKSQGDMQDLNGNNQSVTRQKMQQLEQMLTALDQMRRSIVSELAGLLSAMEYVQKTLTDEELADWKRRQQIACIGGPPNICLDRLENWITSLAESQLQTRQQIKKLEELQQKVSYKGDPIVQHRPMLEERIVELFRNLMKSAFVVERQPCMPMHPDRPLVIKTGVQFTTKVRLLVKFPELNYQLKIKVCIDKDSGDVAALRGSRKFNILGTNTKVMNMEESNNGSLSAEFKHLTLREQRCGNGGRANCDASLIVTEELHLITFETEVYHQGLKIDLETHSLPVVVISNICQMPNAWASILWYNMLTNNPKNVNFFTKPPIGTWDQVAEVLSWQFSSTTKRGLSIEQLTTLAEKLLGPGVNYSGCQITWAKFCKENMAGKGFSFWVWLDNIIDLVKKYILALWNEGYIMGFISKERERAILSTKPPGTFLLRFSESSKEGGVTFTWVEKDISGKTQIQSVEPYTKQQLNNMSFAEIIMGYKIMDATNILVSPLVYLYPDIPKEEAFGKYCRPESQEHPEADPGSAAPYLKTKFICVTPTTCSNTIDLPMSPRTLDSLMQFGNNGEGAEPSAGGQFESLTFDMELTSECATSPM

Molecular target: STAT3 (Homo sapiens, UniProt P40763)
Assay: STAT3 HiBiT degradation assay (Nano-Glo HiBiT lytic detection) in transfected A549 cells
Conditions: read-out: STAT3 HiBIT A549 degradation 24 h: Average external-Abs DC50, 24 h compound incubation, tested form: ammonium salt
Method: Example 1. HiBiT Assay Protocol
Compound preparation and Cell seeding: The transfected A549 cells were harvested from dish into cell culture medium and cell numbers counted. Cells were diluted with culture medium to the desired density and 30 μL of cell suspension (about 2000 cells/well) were added into each well of a 384-well cell culture plate as designated and transferred into 37° C. 5% CO2 incubator for 24 h. Compounds were dissolved to 10 mM stock solution and 12 μL of the stock solution was transferred to a 384 LDV-plate. 3 fold, 10-point dilution was performed by transferring 4 μL compound into 8 μL DMSO using a TECAN (EVO200) liquid handler. 30 μl of diluted compound from compound source plate was transferred into the cell plate as designated by using Echo550 and transferred into 37° C. 5% CO2 incubator for 24 h.
Detection: Plates were removed from incubators and equilibrated at room temperature for 15 minutes. Nano-Glo Hibit Lytic Detection reagent (Promega Cat #N3040) was thawed and equilibrated to room temperature before the experiment. 30 μL of Nano-Glo Hibit Lytic Detection reagent was added into each well to be detected. The plates were held at room temperature for 10 min followed by reading on EnSpire.
Data analysis: The remaining activity was calculated following the formula: Remaining Activity (%)=100%×(Lumsample−LumNC)/(LumPC−LumNC). […]

SMILES	DC50 [nM]
CC(=O)N1CC[C@H]2CC[C@@H](C(=O)N[C@@H](CCC(N)=O)COc3cccc(CCCC(=O)N[C@H](C(=O)N4C[C@H](O)C[C@H]4C(=O)N[C@@H](C)c4ccc(-c5scnc5C)cc4)C(C)(C)C)c3Cl)N2C(=O)[C@@H](NC(=O)c2cc3cc(C(=O)P(=O)(O)O)ccc3s2)C1	> 1000
Cc1ncsc1-c1ccc([C@H](C)NC(=O)[C@@H]2C[C@@H](O)CN2C(=O)[C@@H](NC(=O)CCCc2cccc(OC[C@H](CCC(N)=O)NC(=O)[C@@H]3CC[C@@H]4CCN(C)C[C@H](NC(=O)c5cc6cc(C(=O)P(=O)(O)O)ccc6[nH]5)C(=O)N43)c2Cl)C(C)(C)C)cc1	< 10
